Laboratory results from US6355633B1, “Aryl sulfonic acids and derivatives as FSH antagonists” (American Home Products Corporation, priority 1999, dated 2002).

Legend:
FSH receptor [1] = target: T1, FSH receptor (Rattus norvegicus, UniProt P20395); test: In Vitro Bio-test Procedure of Agonists and Antagonists to the FSH Receptor Using Primary Cultures of Rat Granulosa (estradiol secretion); assay type: cell-based; settings: rat granulosa cells, previously calculated during characterization of the bioprocedure
T1 construct: endogenous in cells; host or cells: primary ovarian granulosa cells of DES-treated immature Sprague-Dawley rats
T1 sequence (P20395 18-692): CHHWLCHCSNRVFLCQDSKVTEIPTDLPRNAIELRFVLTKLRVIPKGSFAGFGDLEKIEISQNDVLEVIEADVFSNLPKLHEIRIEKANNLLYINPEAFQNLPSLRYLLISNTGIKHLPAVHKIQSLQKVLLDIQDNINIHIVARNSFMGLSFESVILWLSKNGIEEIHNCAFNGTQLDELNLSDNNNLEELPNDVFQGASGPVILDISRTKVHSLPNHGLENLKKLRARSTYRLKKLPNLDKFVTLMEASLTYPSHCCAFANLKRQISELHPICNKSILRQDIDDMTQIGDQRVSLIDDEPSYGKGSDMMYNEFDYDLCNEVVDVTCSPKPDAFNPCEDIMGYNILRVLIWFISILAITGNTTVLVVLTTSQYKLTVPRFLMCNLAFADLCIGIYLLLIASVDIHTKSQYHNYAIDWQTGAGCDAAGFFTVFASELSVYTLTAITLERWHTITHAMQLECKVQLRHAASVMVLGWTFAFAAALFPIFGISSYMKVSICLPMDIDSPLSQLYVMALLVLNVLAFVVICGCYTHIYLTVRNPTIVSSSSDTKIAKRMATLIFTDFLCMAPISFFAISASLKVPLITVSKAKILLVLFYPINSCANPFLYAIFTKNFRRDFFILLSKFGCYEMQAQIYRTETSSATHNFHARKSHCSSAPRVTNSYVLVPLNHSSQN
From the text: In Vitro Bio-test Procedure of Agonists and Antagonists to the FSH Receptor Using Primary Cultures of Rat Granulosa
Objective: This procedure was used as a low-throughput functional screening procedure to study in vitro efficacy of compounds found to be agonists or antagonists of the FSH receptor.
Materials and Methods: Reagents
Compound Vehicle: Stock compounds were solubilized in an appropriate vehicle, preferably PBS (phosphate buffered saline) or DMSO (dimethyl sulfoxide), at a concentration of 0.1 M. The compounds were subsequently diluted in sterile challenge medium [McCoy's 5A medium (Gibco/BRL, Grand Island, N.Y.) supplemented with […], […], 5 ng/mL sodium selenite (ITS, Sigma Chemical Co., St. Louis, Mo.), 146 mg/mL L-glutamine, 100 nM testosterone, 100 nM DES and 100 U/mL penicillin/[…]/250 ng/mL amphotericin B (antibiotic/antimycotic, Gibco) and 0.1% bovine serum albumin (Sigma, St. Louis, Mo.)] prior to use in the procedure. […]
Preparation of Granulosa Cells: Twenty-four day-old immature female Sprague-Dawley rats (Charles River Laboratories, Wilmington, Mass.) were used as donors for ovarian granulosa cells. […] After the final spin, the cells were resuspended by gentle trituration in 25 mL serum-free medium, an aliquot counted in a hemocytometer and viability estimated by trypan blue exclusion. […]

[2] = test system: FSH-induced changes in ovarian follicular maturation; test: Immature Rat Test Procedure (FSH-induced organ wet weight); assay type: in vivo; settings: immature rats
Protocol: Immature Rat Test Procedure
In order to assess the ability of compounds to affect FSH-induced changes in ovarian follicular maturation in vivo, immature rats (18 days of age) are treated twice daily for three days with compound in the presence of a half-maximal dose of purified human FSH. Animals are treated via the i.p. or p.o. routes. On the fourth day following treatment, animals are euthanized and the ovaries, uterus and spleen (the spleen is a control tissue that should not respond to FHS stimulation) collected for wet weight determination. In each experiment animals treated with vehicle alone or FSH alone are used as negative and positive controls, respectively. In this paradigm FSH induces a 2-3-fold increase in ovarian and uterine wet weight but has no effect on the spleen (control tissue).

FSH receptor [3] = target: T2, FSH receptor (Homo sapiens, UniProt P23945); test: In Vitro Bio-test Procedure of Agonists and Antagonists to the FSH Receptor (cAMP accumulation in CHO-3D2 cells); assay type: cell-based; parameters: expressed in transfected cells; host or cells: CHO-3D2 cells; settings: agonist mode, four-parameter logistic equation
T2 sequence (P23945 18-695): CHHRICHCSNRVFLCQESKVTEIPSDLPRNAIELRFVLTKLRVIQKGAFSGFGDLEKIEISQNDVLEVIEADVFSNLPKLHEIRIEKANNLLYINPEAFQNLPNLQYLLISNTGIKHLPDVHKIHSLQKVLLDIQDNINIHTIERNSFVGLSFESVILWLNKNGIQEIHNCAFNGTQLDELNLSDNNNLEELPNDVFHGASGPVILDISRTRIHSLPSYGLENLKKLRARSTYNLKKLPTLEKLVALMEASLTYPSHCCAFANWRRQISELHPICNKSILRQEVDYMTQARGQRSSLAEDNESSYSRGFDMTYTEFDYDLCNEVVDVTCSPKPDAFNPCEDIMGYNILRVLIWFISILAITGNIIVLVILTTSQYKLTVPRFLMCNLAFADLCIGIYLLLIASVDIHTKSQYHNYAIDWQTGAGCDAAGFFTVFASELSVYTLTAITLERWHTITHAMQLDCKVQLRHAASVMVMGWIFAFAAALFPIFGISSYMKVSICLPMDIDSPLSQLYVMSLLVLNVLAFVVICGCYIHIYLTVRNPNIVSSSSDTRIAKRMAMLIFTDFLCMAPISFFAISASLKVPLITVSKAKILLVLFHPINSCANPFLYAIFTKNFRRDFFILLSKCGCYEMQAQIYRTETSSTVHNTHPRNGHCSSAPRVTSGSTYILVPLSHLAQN
From the text: In Vitro Bio-test Procedure of Agonists and Antagonists to the FSH Receptor
Objective: This procedure was used to verify in vitro efficacy of compounds found to bind to the FSH receptor in the binding procedure.
Compound Vehicle: Stock compounds were solubilized in an appropriate vehicle preferably PBS/0.1% Bovine Serum Albumin (BSA; Sigma Chemical Co., St. Louis, Mo.). The compounds were subsequently diluted in sterile procedure medium (Optimem (Gibco/BRL, Grand Island, N.Y.)/0.1% BSA) prior to use in the bio-procedure.
Preparation of CHO-3D2 Cells; CHO-3D2 cells were plated into 96-well Nunc tissue culture plates at a density of 30,000 cells/well in DMEM/F12 medium (Gibco/BRL, Grand Island, N.Y.) supplemented with 5% Fetal Bovine Serum (Hyclone, Fetal Clone II), 2 mM L-glutamine and penicillin/streptomycin (100 U/mL). Cells were plated one day prior to performing the bio-procedure.
Procedure: On the day of procedure, the wells were washed two times with 100 ul/well of pre-warmed (37 deg C.) procedure medium. After aspirating the second wash, an additional 100 ul of procedure medium was added to each well and the cells pre-incubated for 30-45 minutes at 37 deg C. In a humidified incubator with 5%CO2/95% air. […] CAMP accumulation in the medium was measured by radioimmunoassay. […]
For antagonist mode, compounds were tested in a dose-response paradigm versus a constant level of purified human FSH (the ED20 (1.85 ng/mL); previously calculated during characterization of the bio-procedure). […]
The doses chosen to test each compound were extrapolated from the initial screening process (receptor binding data). […] The cells were washed two times with 100 ul PBS followed by examination of the cells under a fluorescence microscope using a 490 nm filter. […]
Analysis of Results: cAMP accumulation was expressed as fmol/mL. […] Data were analyzed statistically by analysis of variance and significant differences between treatments and control determined by Dunnett's test. […]

## hFSH: purified or recombinant human FSH (follicle stimulating hormone), reference compound and positive control
FSH receptor [1]
  ED50, estradiol secretion: 0.5 ng/mL
[2]; FSH alone
  effect on the spleen (control tissue): no effect
[2]; FSH alone (positive control)
  increase in ovarian and uterine wet weight: 2-3 fold
FSH receptor [3]
  apparent ED20, cAMP accumulation: 1.85 ng/mL
  apparent ED50, cAMP accumulation: 6.03 ng/mL
  apparent ED80, cAMP accumulation: 22.55 ng/mL
